From patent US20090117083A1, “IMMUNOMODULATORY ALKALOIDS” (M N L PHARMA LIMITED, priority 2004, published 2009) come the findings set out here.

Protein sequences, listed by entry. Tags and fused reporters are not part of them. Lines headed by an entry give the natural chain unless they say otherwise; changes in a name come on top. Residues count along the entry.
UniProt Q42656, 16-378: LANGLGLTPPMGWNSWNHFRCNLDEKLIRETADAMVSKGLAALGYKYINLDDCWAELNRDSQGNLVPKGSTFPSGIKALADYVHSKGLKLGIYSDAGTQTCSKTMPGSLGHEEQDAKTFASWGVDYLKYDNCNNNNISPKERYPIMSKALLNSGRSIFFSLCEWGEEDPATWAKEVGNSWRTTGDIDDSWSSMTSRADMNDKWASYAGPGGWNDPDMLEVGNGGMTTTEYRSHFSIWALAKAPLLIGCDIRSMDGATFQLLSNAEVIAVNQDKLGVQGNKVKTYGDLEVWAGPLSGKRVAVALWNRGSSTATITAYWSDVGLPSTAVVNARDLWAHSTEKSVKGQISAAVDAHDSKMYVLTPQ
UniProt P53341: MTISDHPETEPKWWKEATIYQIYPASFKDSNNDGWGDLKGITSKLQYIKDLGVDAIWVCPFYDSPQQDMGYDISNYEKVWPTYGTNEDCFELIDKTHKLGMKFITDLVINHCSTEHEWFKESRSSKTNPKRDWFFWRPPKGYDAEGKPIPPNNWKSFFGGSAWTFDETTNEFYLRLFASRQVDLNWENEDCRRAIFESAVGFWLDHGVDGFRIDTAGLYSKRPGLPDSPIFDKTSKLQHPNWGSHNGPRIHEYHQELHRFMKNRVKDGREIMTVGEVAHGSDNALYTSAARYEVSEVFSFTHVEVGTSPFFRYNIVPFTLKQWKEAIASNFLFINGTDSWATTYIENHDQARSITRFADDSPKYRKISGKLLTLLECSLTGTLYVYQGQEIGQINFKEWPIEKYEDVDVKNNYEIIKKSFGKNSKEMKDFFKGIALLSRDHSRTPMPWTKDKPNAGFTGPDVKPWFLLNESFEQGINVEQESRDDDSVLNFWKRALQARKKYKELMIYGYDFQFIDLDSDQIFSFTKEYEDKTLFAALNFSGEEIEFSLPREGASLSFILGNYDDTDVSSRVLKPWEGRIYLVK
UniProt C0HJB3, whole entry: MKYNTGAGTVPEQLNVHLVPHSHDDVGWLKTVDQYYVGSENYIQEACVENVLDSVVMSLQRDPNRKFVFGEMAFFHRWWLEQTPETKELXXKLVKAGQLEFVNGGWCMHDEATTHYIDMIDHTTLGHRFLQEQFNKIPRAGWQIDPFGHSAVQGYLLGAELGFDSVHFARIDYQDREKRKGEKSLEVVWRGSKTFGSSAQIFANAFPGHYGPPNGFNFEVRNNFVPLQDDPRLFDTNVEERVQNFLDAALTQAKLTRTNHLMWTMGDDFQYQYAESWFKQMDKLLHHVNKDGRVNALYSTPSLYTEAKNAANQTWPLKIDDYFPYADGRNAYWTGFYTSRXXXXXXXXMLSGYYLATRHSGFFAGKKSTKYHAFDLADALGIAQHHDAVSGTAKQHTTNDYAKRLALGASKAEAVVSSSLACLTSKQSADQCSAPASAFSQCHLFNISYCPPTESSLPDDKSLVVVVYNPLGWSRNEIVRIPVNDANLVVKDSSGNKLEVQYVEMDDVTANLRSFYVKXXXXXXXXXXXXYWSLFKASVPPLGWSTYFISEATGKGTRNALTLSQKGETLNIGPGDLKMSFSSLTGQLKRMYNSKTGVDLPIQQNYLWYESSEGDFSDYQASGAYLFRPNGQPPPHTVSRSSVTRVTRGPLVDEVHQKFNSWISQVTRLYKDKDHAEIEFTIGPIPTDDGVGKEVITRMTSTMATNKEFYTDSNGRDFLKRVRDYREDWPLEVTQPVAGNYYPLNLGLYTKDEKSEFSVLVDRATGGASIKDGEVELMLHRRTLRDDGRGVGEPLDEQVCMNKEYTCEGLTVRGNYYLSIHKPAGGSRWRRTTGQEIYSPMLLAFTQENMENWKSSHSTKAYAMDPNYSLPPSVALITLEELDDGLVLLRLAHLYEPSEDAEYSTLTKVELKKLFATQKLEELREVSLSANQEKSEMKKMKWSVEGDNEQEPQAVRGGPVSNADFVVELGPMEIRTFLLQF

For assay [1], the system named is β-D-galactosidase. Nature of the assay: Glycosidase inhibition: β-D-galactosidase. Particulars: 1 mg/ml; second galactosidase line. It counts as biochemical, Bovine. How it is done:
(§1) All enzymes were purchased from Sigma, as were the appropriate p-nitrophenyl substrates. Assays were carried out in microtitre plates. Enzymes were assayed in 0.1M citric acid/0.2M di-sodium hydrogen phosphate (McIlvaine) buffers at the optimum pH for the enzyme. All assays were carried out at 20° C. For screening assays the incubation assay consisted of 10 μl of enzyme solution, 10 μl of inhibitor solution (made up in water) and 50 μl of the appropriate 5 mM p-nitrophenyl substrate (3.57 mM final conc.) made up in McIlvaine buffer at the optimum pH for the enzyme.
(§2) The reactions were stopped with 0.4M glycine (pH 10.4) during the exponential phase of the reaction, which was determined at the beginning of the assay using blanks with water, which were incubated for a range of time periods to measure the reaction rate using 5 mM substrate solution. Endpoint absorbances were read at 405 nm with a Biorad microtitre plate reader (Benchmark). Water was substituted for the inhibitors in the blanks.

For assay [2], the target named is T1, α-D-galactosidase (Coffea arabica, UniProt Q42656).
T1 construct: purchased Sigma
Nature of the assay: Glycosidase inhibition: α-D-galactosidase. It counts as biochemical, Green coffee beans (Coffea sp.). To be noted: read-out: % inhibition, galactosidase. Here is the method:
as §1, §2

Assay [3] concerns the target T2, α-D-glucosidase (Saccharomyces cerevisiae, UniProt P53341).
T2 construct: purchased Sigma
The experiment in a line: Glycosidase inhibition (p-nitrophenyl substrate): α-D-glucosidase, yeast. It is filed as biochemical, Saccharomyces cerevisiae (Baker's yeast). Particulars: 1 mg/ml; read-out: % inhibition, gluc (yeast). Here is the method: as §1, §2

In assay [4] the target is T3, α-D-mannosidase (Canavalia ensiformis, UniProt C0HJB3).
T3 construct: purchased Sigma
The experiment in a line: Glycosidase inhibition: α-D-mannosidase. It is filed as biochemical, Jack beans (Canavalia ensiformis). Particulars: read-out: % inhibition, mannosidase. How it is done: All enzymes were purchased from Sigma, as were the appropriate p-nitrophenyl substrates. Assays were carried out in microtitre plates. Enzymes were assayed in 0.1M citric acid/0.2M di-sodium hydrogen phosphate (McIlvaine) buffers at the optimum pH for the enzyme. All assays were carried out at 20° C.
Endpoint absorbances were read at 405 nm with a Biorad microtitre plate reader (Benchmark). Water was substituted for the inhibitors in the blanks.

The inhibition is the drop in the measured response relative to a control, in per cent.

For `OC[C@H]1[C@@H](O)[C@H](O)[C@H]2[C@@H](O)[C@@H](O)CN21` [3,7-diepi-casuarine (10), (1R,2R,3S,6S,7R,7aR)-3-(hydroxymethyl)-1,2,6,7-tetrahydroxypyrolizidine], the “% inhibition, galactosidase” value in assay [1] is reported as 24%. The inhibition at 1000 µg/mL in assay [2] was -11%; in assay [3], -2%.

`OC[C@H]1[C@@H](O)[C@H](O)[C@H]2[C@H](O)[C@@H](O)CN21` [3-epi-casuarine (14), 3-epi-casuarine]: the “% inhibition, galactosidase” value in assay [1] was found to be 6%. Also, the inhibition at 1000 µg/mL in assay [4] is -4%; in assay [3], 0%.

Consider `OC[C@@H]1[C@@H](O)[C@H](O)[C@H]2[C@@H](O)[C@@H](O)CN21` [7-epi-casuarine (11), 7-epi-casuarine], for which the “% inhibition, galactosidase” value in assay [1] was 35%. Moreover, the results for the inhibition at 1000 µg/mL in assay [4] and in assay [3] were 10% and 11%, respectively.

With `OC[C@H]1[C@@H](O)[C@H](O)[C@H]2[C@@H](O)[C@H](O)CN21` [Compound 12, 3,6,7-triepi-casuarine], in assay [1], the “% inhibition, galactosidase” value was 6%.

Turning to `OC[C@H]1[C@@H](O)[C@H](O)[C@@H]2[C@@H](O)[C@H](O)CN21` [Compound 21, 3,6,7,7a-tetraepi-casuarine], the “% inhibition, galactosidase” value in assay [1] is given as 3%. Besides, the inhibition at 1000 µg/mL in assay [3] was -1%.

`OC[C@H]1[C@@H](O)[C@H](O)[C@@H]2[C@@H](O)[C@@H](O)CN21` [Compound 22, 3,7,7a-triepi-casuarine]: the “% inhibition, galactosidase” value in assay [1] is reported as 52%. The inhibition at 1000 µg/mL in assay [4] is -1%; in assay [2] it was -2%.

For `OC[C@@H]1[C@@H](O)[C@H](O)[C@H]2[C@H](O)[C@@H](O)CN21` [casuarine (8)], in assay [1], the “% inhibition, galactosidase” value worked out at 0%. Moreover, in assay [4], the inhibition at 1000 µg/mL amounted to 5%.
